# US20250057859A1, “CANNABICHROMENEQUINONE AND ANALOGUES THEREOF, AND METHOD OF USING COMPOSITIONS THEREOF AS ANTI-INFLAMMATORY AGENTS” (Juva Life, Inc., priority 2021, published 2025)
# The chains behind the UniProt entries cited, without tags or fusion partners.
# UniProt P34972, whole entry: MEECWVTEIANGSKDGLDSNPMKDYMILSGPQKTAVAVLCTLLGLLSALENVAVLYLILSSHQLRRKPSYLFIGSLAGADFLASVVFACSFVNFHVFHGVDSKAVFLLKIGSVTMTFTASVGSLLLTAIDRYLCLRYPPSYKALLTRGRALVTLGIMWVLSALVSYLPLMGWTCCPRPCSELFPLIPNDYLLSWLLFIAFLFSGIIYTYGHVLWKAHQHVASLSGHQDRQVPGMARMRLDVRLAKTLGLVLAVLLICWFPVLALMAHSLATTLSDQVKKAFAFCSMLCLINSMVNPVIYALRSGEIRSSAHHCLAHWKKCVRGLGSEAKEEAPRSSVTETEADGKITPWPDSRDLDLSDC
# Entries after “also recorded” stand apart in the source; their conditions may differ.
# Experiments:
# [1] = test system: SK-MEL-28 melanoma cell line; assay: SK-MEL-28 cell line toxicity (Cell titer Glo viability); assay type: cell-based
# Description: (§1) Culture medium were purchased from ATCC, USA.
# (§2) 90 nL DMSO is added to control wells. […] Luminescence was then recorded using Synergy Neo2Multi-mode Reader.
# [2] = test system: PC3 prostate adenocarcinoma cell line; assay: PC3 cell line toxicity (Cell titer Glo viability); assay type: cell-based
# Description: as §2, §1
# [3] = test system: HL-60 acute promyelocytic leukemia cell line
# Description: The half maximal inhibition concentration (IC50) for each compound was determined by harvesting cells during the logarithmic growth period and then counting cell number using hemocytometer. […] Then, using a Biomek FX, test articles were serially diluted (10 mM top, 3× dilution intervals) along with a reference inhibitor (1 mM top, 3× dilution intervals) in acoustic grade Labcyte plate. Then, using an acoustic dispenser (Labcyte550), compounds were added as serially diluted to plate with cells: 90 nL of serially diluted compounds per well. 90 nL DMSO is added to control wells. Test plates were incubated for 72 h in the humidified incubator at 37° C. with 5% CO2. 25 μL of reconstituted Cell titer Glo reagent was added to each well. Each test plate was then incubated for 20 min at room temperature. Luminescence was then recorded using Synergy Neo2Multi-mode Reader.
# (§3) In order to calculate intersect IC50, a dose-response curve was fitted using nonlinear regression model with a sigmoidal dose response.
# The formula for calculating surviving rate is shown below, and the intersect IC50 was calculated according to the dose-response curve generated by the software:
# The compounds of interest were assessed cell viability in the HL-60 acute promyelocytic leukemia cell line (ATCC® CCL-240). […] Culture medium were purchased from ATCC, USA.
# [4] = test system: PANC-1 pancreatic carcinoma cell line; assay: PANC-1 cell line toxicity (Cell titer Glo viability)
# Description: The half maximal inhibition concentration (IC50) for each compound was determined by harvesting cells during the logarithmic growth period and then counting cell number using hemocytometer. The cell concentrations were adjusted to 5×10^4 cells/mL with respective culture medium. 30 μL of cell suspensions were added to three 384-well plates with the final cell density of 1.5×10^3 cells/well. Then, using a Biomek FX, test articles were serially diluted (10 mM top, 3× dilution intervals) along with a reference inhibitor (1 mM top, 3× dilution intervals) in acoustic grade Labcyte plate. Then, using an acoustic dispenser (Labcyte550), compounds were added as serially diluted to plate with cells: 90 nL of serially diluted compounds per well. 90 nL DMSO is added to control wells. Test plates were incubated for 72 h in the humidified incubator at 37° C. with 5% CO2. 25 μL of reconstituted Cell titer Glo reagent was added to each well. Each test plate was then incubated for 20 min at room temperature. Luminescence was then recorded using Synergy Neo2Multi-mode Reader.
# as §3
# The formula for calculating surviving rate is shown below, and the intersect IC50 was calculated according to the dose-response curve generated by the software: […]
# [5] = target: T1, cannabinoid receptor 2 (CNR2) (Homo sapiens, UniProt P34972); assay: CB2 receptor agonist assay (cAMP Hunter eXpress, CNR2 CHO-K1); assay type: cell-based
# T1 construct: host or cells: CHO-K1
# Description: The assays were performed in cAMP Hunter eXpress cells engineered to overexpress naturally Gi/Go-coupled wildtype cannabinoid receptor 1 (CNR1) or cannabinoid receptor 2 (CNR2) in CHO-K1 cell type. In these cells, CB1 and/or CB2 agonists inhibit production of intracellular cAMP in response to stimulation with Forskolin. cAMP levels are determined using luminogenic detection reagents provided with the Hunter eXpress cAMP detection kit.
# • Assay ready CNR1 CHO-K1 cells were obtained from Eurofins/Discover X, cat #95-0071E2 • Assay ready CNR2 CHO-K1 cells were obtained from Eurofins/Discover X, cat #95-0183E2 • Hunter eXpress cAMP detection kit was also from Discover X. The kit includes all cAMP detection reagents, Forskolin, complete cell plating medium and cell assay buffer.
# The Assay-Ready CNR1 CHO-K1 or CNR2 CHO-K1 cells were thawed and re-suspended in pre-warmed Assay Complete plating medium and inoculated into 96well plate at a density of 30,000 cells in 100 μL. The plates with cells were incubated for 24 h at 37° C. in 5% CO2. […] The cells were stimulated with the Forskolin/compound buffer for 30 min. […] The plate was read on Biotek Synergy Neo2 reader in luminescent mode. […] Relative luminescence units (RLUs) were plotted against compound concentration to determine apparent EC50 values of the agonist compounds.
compound,measurement,setting,value
CCCCCC1=CC(=O)C2=C(OC(C)(CCC=C(C)C)C=C2)C1=O (stereo not drawn) [Formula II],fold higher tolerance than staurosporine,[1],more than 250 fold
same,fold higher tolerance than staurosporine,[2],"more than 10,000 fold"
same,fold higher tolerance than staurosporine,[3],more than 200 fold
same,fold higher tolerance than staurosporine,[4],more than 750 fold
same,"selectivity for CB2 receptor activation over CB1, in words",[5]; agonist,good selectivity; also recorded: high potency and selectivity
same,Selectivity for CB2 over CB1,[5]; ratio of EC50 values,>80 fold
